Target: TLR7 (Homo sapiens, UniProt Q9NYK1)
Assay: HEK Cell Assay (TLR7/NFKb HEK reporter cells, Steady-Glo)
Settings: read-out: Potency, compound 30 min, then R*48 agonist 5 hours, Steady-Glo readout
Experimental: Example 32: HEK Cell Assay
Into 384 CulturePlates (Corning 3707) was placed 5000 c/w of TLR7/NFKb HEK cells in 30 uL DMEM without Phenil red (gibco #31053) and 10% i.a. FCS and 2 mM L-ZGLutamin. The cells were incubated for 24 h at 37 degrees Celsius, 10% carbon dioxide and 90% relative humidity, 3 uL of controls, standards, and compounds were dispensed to wells, incubated for 30 min then 3 uL of R*48 agonist in 20 mM Hepes was added. After incubation for 5 hours, it was allowed to stand at room temperature for 15 min, 10 uL of Steady-Glo substrate reagent was added and shake assay plate for 5 min at 1500 rpm. The assay plate was allowed to sit for 30 min at room temperature and then read plate on EnVision.

The chains behind the UniProt entries cited, without tags or fusion partners. Residues count along the entry.
UniProt Q9NYK1, 27-1049 limits assumed: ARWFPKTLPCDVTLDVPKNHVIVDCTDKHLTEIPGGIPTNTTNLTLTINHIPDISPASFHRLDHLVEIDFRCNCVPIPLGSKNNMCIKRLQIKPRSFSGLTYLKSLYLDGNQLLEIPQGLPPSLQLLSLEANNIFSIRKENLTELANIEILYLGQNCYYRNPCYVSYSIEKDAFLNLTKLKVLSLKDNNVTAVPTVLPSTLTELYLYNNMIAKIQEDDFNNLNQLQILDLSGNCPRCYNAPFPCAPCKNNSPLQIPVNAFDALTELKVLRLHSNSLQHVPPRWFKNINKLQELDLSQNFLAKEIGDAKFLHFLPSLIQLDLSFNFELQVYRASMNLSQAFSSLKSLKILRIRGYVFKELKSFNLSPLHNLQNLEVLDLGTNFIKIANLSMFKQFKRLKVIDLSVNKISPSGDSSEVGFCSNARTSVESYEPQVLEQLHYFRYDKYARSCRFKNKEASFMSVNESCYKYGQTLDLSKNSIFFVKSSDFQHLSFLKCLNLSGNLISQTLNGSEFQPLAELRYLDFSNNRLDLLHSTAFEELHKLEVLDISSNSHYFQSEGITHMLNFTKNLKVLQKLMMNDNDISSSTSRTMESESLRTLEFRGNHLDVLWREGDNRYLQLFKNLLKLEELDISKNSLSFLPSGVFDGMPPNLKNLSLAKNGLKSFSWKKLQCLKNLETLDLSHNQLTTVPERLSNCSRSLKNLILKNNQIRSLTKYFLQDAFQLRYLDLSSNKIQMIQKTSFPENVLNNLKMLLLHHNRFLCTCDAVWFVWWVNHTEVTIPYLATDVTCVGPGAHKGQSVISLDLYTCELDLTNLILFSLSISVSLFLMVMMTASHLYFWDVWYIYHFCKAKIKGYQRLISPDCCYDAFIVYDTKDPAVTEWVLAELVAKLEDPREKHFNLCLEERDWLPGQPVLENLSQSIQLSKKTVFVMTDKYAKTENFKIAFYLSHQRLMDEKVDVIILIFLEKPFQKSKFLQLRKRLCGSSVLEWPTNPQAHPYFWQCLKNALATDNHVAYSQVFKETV

| Structure (SMILES) | IC50 |
| --- | --- |
| C[C@@H]1C[C@@H](c2ccc(C#N)c3ncccc23)CN(C(=O)C[C@@H]2[C@H]3CN(C)C[C@@H]23)C1 (relative stereo) | < 1000 nM |
| C[C@@H]1C[C@H](c2ccc(C#N)c3ncccc23)CN(C(=O)C[C@@H]2[C@H]3CN(C)C[C@@H]23)C1 (relative stereo) | < 1000 nM |
